The assay has as its target PRMT6 (Homo sapiens, UniProt Q96LA8). The assay can be described thus: PRMT6 radiometric biochemical assay, 2 h preincubation. Conditions: read-out: PRMT6 IC50.

Amino acid sequences for entries named in this document (tags omitted).
UniProt Q96LA8, whole entry: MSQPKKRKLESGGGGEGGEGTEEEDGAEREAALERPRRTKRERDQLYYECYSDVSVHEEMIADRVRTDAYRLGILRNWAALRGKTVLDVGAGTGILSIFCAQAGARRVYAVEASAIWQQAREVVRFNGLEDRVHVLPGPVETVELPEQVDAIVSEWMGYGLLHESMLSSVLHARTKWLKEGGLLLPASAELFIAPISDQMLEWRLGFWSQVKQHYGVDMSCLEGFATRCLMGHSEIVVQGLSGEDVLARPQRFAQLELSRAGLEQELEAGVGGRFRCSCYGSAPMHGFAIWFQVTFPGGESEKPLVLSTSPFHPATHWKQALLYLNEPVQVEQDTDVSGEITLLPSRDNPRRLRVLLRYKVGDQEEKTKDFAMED

The structures appear in SMILES notation.

Experimental findings from publication PMC8035306 (Journal of medicinal chemistry, 2021) are described below.

Regarding `Cc1cc(C)cc([C@H]2c3cc(C)ccc3NC(=O)CN2C(=O)c2ccc(Br)s2)c1` [(S)-2, 4-(5-bromothiophene-2-carbonyl)-5-(3,5-dimethylphenyl)-7-methyl-1,3,4,5-tetrahydro-2H-benzo[e][1,4]diazepin-2-one], the IC50 is more than 50 µM.

As usually defined, the IC50 is the midpoint of a concentration-inhibition curve.
